Source: PubChem BioAssay AID720582 (The Scripps Research Institute Molecular Screening Center, 2013)
The list shows a part of the results, in another mix than the full data. The source made the active and inactive calls.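 The calls were made as follows: active = inhibition above a per-campaign cutoff equal to the mean of compounds falling between control-based bounds plus 3 SD (cut at about 20% in these data); inactive = the rest.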

By UniProt entry, the sequences of proteins in these tests, tags left out. Residues count along the entry.
UniProt O14672, 214-748 limits assumed: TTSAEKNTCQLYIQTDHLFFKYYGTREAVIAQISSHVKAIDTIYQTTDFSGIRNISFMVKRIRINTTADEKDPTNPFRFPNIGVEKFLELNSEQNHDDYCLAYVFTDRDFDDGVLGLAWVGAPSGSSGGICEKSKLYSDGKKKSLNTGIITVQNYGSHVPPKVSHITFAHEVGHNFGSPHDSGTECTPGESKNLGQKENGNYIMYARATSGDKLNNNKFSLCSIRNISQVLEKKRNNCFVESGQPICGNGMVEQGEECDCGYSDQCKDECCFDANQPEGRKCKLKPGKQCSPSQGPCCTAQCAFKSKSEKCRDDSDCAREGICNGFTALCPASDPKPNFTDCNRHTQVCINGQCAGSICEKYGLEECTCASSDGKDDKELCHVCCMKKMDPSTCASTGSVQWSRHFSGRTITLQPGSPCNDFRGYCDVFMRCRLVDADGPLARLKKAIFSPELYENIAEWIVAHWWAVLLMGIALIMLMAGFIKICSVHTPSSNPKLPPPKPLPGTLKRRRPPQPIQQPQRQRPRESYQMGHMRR

target: Disintegrin and metalloproteinase domain-containing protein 10 (Homo sapiens) (UniProt O14672); test: blockers of ADAM10 peptide cleavage – biochemical, QFRET, HTS, primary screen (AID 720582); conditions: recombinant ADAM10, EDANS/DABCYL FRET peptide cleavage, 3 h; at 7 µM; stronger effect = higher value;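 also: 0% = DMSO wells while the 100% control is not disclosed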

Compound | inhibition
O=[N+]([O-])c1cc([N+](=O)[O-])c(Nc2cccnc2)c([N+](=O)[O-])c1 | inactive: 5.05%
CC(C)(C)c1ccc(OP(C)(=O)Nc2ccc(SC(F)(F)F)cc2)cc1 (stereo unspecified) | inactive: -3.85%
Cc1cccc(C)c1OP(C)(N)=O (stereo unspecified) | inactive: 7.88%
O=[N+]([O-])c1ccc2c(c1)C=Nc1ccccc1O2 | inactive: 10.8%
CCOC(=O)c1ccc(NP(C)(=O)Oc2ccccc2)cc1 (stereo unspecified) | inactive: -12.7%
COc1ccccc1OP(C)(=O)Nc1ccc(C)cc1 (stereo unspecified) | inactive: -18.2%
Cc1ccc(NP(C)(=O)Oc2ccccc2)c(C)c1 (stereo unspecified) | inactive: -6.71%
COc1ccccc1OP(C)(=O)Nc1cc(Cl)ccc1C (stereo unspecified) | inactive: -6.8%
COc1ccc(OP(C)(=O)Nc2cccc(F)c2)cc1 (stereo unspecified) | inactive: 0.02%
Cc1cc(C)cc(OP(C)(N)=O)c1 (stereo unspecified) | inactive: 5.44%
CP(=S)(Nn1cnnc1)Oc1ccccc1 (stereo unspecified) | inactive: 4.72%
COc1ccccc1OP(C)(=O)Nc1ccccc1 (stereo unspecified) | inactive: -10.4%
CP(=O)(Nc1ccccc1Br)Oc1ccccc1 (stereo unspecified) | inactive: -2.68%
CP(=O)(Nc1ccc(SC(F)(F)F)cc1)Oc1ccc(Cl)cc1 (stereo unspecified) | inactive: 5.72%
Cc1cccc(C)c1OP(C)(=O)Nc1ccc(SC(F)(F)F)cc1 (stereo unspecified) | inactive: -49.2%
CP(=O)(Oc1ccccc1)OC(c1ccccc1)C(F)(F)F (stereo unspecified) | inactive: 4.95%
CCc1ccc(OP(C)(=O)N2CCN(c3ccc([N+](=O)[O-])cc3)CC2)cc1 (stereo unspecified) | inactive: 0.39%
CP(=O)(NC(=O)Nc1ccccc1)Oc1ccccc1 (stereo unspecified) | inactive: 1.25%
Cc1cc(C)cc(OP(C)(=O)Nc2ccc(SC(F)(F)F)cc2)c1 (stereo unspecified) | inactive: 3.31%
CCOP(C)(=S)SCC(=O)NC(C)C(=O)O (stereo unspecified) | inactive: 7.88%
O=[N+]([O-])c1cc([N+](=O)[O-])c(O)c([N+](=O)[O-])c1.c1ccc(Oc2ccncc2)cc1 | inactive: 3.24%
CCOC(=O)c1ccc(NP(C)(=O)Oc2ccc(OC)cc2)cc1 (stereo unspecified) | inactive: -2.97%
CP(=O)(Nc1ccccn1)Oc1ccc(Cl)cc1 (stereo unspecified) | inactive: -4.14%
CCN(CC)CC(O)COC(=O)C(O)(c1ccccc1)C1CCCCC1 (stereo unspecified) | inactive: 3.66%
COc1ccc(OP(C)(=O)Nc2ccc(Br)cc2)cc1 (stereo unspecified) | inactive: 2.52%
CP(=O)(Oc1ccccc1)N1CCOC1=O (stereo unspecified) | inactive: 5.4%

Compound | inhibition
CCc1ccc(OP(C)(=O)Nc2cccnc2)cc1 (stereo unspecified) | inactive: -7.49%
COc1ccccc1OP(C)(=O)Nc1c(C)n(C)n(-c2ccccc2)c1=O (stereo unspecified) | inactive: 1.9%
O=C(OCCCN1CCCC1)C(O)(c1ccccc1)C1CCCCC1 (stereo unspecified) | inactive: -4.06%
CP(=O)(Nc1ccc(Cl)cc1)Oc1ccc(F)cc1 (stereo unspecified) | inactive: 6.47%
CC(C)(C)c1ccc(OP(C)(=O)O)cc1 | inactive: -3.5%
COc1ccccc1OP(C)(=O)Nc1ccccc1Br (stereo unspecified) | inactive: 6.1%
CN(C)C(=O)c1c([N+](=O)[O-])cc([N+](=O)[O-])cc1[N+](=O)[O-] | inactive: -8.55%
Nc1ccc2c(ccc3cccnc32)n1.O=[N+]([O-])c1cc([N+](=O)[O-])c(O)c([N+](=O)[O-])c1 | inactive: -153%
CP(=O)(OC12CC3CC(CC(C3)C1)C2)OC12CC3CC(CC(C3)C1)C2 | inactive: -6.63%
CCOC(=O)c1ccc(NP(C)(=O)Oc2ccc(Cl)cc2)cc1 (stereo unspecified) | inactive: -0.42%
O=C1C(O)=C([N+](=O)[O-])C(=O)C(O)=C1[N+](=O)[O-] | inactive: -31.2%
Cc1cc(C)cc(OP(C)(=O)Nc2cccc(C(F)(F)F)c2)c1 (stereo unspecified) | inactive: 4.63%
COc1ccc(OP(C)(=O)Nc2ccccc2Br)cc1 (stereo unspecified) | inactive: -7.6%
COc1ccccc1OP(C)(=O)Nc1ccc(C)c(C)c1 (stereo unspecified) | inactive: -7.5%
CP(=O)(OCCOc1ccccc1)OCCOc1ccccc1 | inactive: 3.54%
CCCCCCCCCCCCCCCC1C[N+](C)(C)CCOP(C)(=O)O1 (stereo unspecified) | inactive: -2.63%
CP(=O)(Nc1ccc(Cl)cc1Cl)Oc1ccccc1 (stereo unspecified) | inactive: -2.36%
COc1ccccc1OP(C)(=O)Nc1ccc(Br)cc1 (stereo unspecified) | inactive: -0.38%
CN(C)CCOC(=O)C(O)(c1ccccc1)C1CCCC1 (stereo unspecified) | inactive: 7.98%
COc1ccc(OP(C)(=O)Nc2ccccn2)cc1 (stereo unspecified) | inactive: -2.3%
O=[N+]([O-])c1cc([N+](=O)[O-])c(Nc2ccccn2)c([N+](=O)[O-])c1 | inactive: -1.55%
Cc1c(NP(C)(=O)Oc2ccc(C(C)C)cc2)c(=O)n(-c2ccccc2)n1C (stereo unspecified) | inactive: -0.51%
CCc1ccc(OP(C)(=O)O)cc1 | inactive: -2.02%
CP(=O)(Nc1ccccn1)Oc1ccccc1 (stereo unspecified) | inactive: -1.15%
COc1ccccc1OP(C)(=O)Nc1ccc(C)cc1C (stereo unspecified) | inactive: -1.23%
O=[N+]([O-])c1cc([N+](=O)[O-])c(Nc2ccc(Cl)cc2)c([N+](=O)[O-])c1 | inactive: 9.81%

Compound | inhibition
CC(C)c1ccc(OP(C)(=O)Nc2ccc(SC(F)(F)F)cc2)cc1 (stereo unspecified) | inactive: 8.78%
CP(=O)(Nc1ccccc1F)Oc1ccccc1 (stereo unspecified) | inactive: -4.17%
O=C(OCCN1CCN(CCOCc2ccccc2)CC1)C(O)(c1ccccc1)c1ccccc1 | inactive: 7.7%
O=C(OC1CN2CCC1CC2)c1ccc([N+](=O)[O-])cc1 (stereo unspecified) | inactive: 2.91%
CCN(CC)CCCNc1ccccc1[N+](=O)[O-].O=[N+]([O-])c1cc([N+](=O)[O-])c(O)c([N+](=O)[O-])c1 | inactive: 0.63%
COc1ccc(OP(C)(=O)Nc2ccc(SC(F)(F)F)cc2)cc1 (stereo unspecified) | inactive: 4.22%
CCOC(=O)c1ccc(NP(C)(=O)Oc2ccc(F)cc2)cc1 (stereo unspecified) | inactive: -5.77%
CCN(CC)CCCOC(=O)C(O)(c1ccccc1)C1CCCCC1 (stereo unspecified) | inactive: -13%
Cc1c([N+](=O)[O-])cc([N+](=O)[O-])c(Br)c1[N+](=O)[O-] | inactive: 12.5%
CCCCCOc1ccc(NP(C)(=O)Oc2ccc(Cl)cc2Cl)cc1 (stereo unspecified) | inactive: 1.35%
O=[N+]([O-])c1cc([N+](=O)[O-])c(OC2CCCCC2O)c([N+](=O)[O-])c1 (stereo unspecified) | inactive: -2.55%
COc1ccc(OP(C)(=O)Nc2cccc(Br)c2)cc1 (stereo unspecified) | inactive: 12.2%
COc1ccc(NP(C)(=O)Oc2ccccc2OC)cc1 (stereo unspecified) | inactive: 2.33%
CN(C)CCOC(=O)C(O)(c1ccccc1)C1CCCCC1 (stereo unspecified) | inactive: -2.21%
O=[N+]([O-])c1cc([N+](=O)[O-])c(NCC2CCS(=O)(=O)C2)c([N+](=O)[O-])c1 (stereo unspecified) | inactive: 11%
Cc1cc(-c2cccc3ccccc23)c(C)cn1.O=[N+]([O-])c1cc([N+](=O)[O-])c(O)c([N+](=O)[O-])c1 | inactive: -5.49%
O=[N+]([O-])c1ccc(OP2(=O)COCCO2)cc1 (stereo unspecified) | inactive: 1.84%
Cc1c(C(c2ccc3c(c2)OCO3)c2c(C)n(C)n(-c3ccccc3)c2=O)c(=O)n(-c2ccccc2)n1C.O=[N+]([O-])c1cc([N+](=O)[O-])c(O)c([N+](=O)[O-])c1 | inactive: -4.23%
CP(=O)(Nc1ccc(SC(F)(F)F)cc1)Oc1ccc(F)cc1 (stereo unspecified) | inactive: 12.4%
CCOP(=O)(CC)OCC | inactive: -3.54%
CCOP(C)(=S)SCC(=O)NC(C)(CC)C(=O)O (stereo unspecified) | inactive: -2.71%
CP(=O)(Nc1ccc2c(c1)OCCO2)Oc1ccccc1 (stereo unspecified) | inactive: -0.99%
O=[N+]([O-])c1cc([N+](=O)[O-])c(C(F)(F)F)c([N+](=O)[O-])c1O | inactive: 6.16%
Cc1ccccc1NP(C)(=O)Nc1ccccc1C | inactive: 1.85%
